Data reported in PubChem BioAssay AID624354 (Sanford-Burnham Center for Chemical Genomics, 2012).
This is a selection; strong and weak results do not stand in their true shares. Active and inactive are the calls of the source.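 The calls were made as follows: active = compounds causing at least 50% loss of cell viability in the single-dose screen, relative to plate controls; inactive = the rest.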

Test: TRAIL-exposed caspase-8 expressing cell killing – NB7+C8 cells, ATPlite luminescence, TRAIL sensitizer project, primary screen (AID 624354)
Settings: at 10 µM, active compounds read high

| Compound | inhibition (viability loss, TRAIL sensitization) |
| --- | --- |
| O=[N+]([O-])c1ccc(Nc2ccc(Oc3ccc([N+](=O)[O-])cc3[N+](=O)[O-])cc2)c([N+](=O)[O-])c1 | inactive: 14.7% |
| Cc1cc(SC(NC=O)C(Cl)(Cl)Cl)ncn1 (configuration not stated) | inactive: 1.26% |
| O=P(Nc1ccccn1)(c1cccc2ccccc12)c1cccc2ccccc12 | inactive: -5.36% |
| COP1(=S)c2c(C)nn(CCC#N)c2N=C(c2ccc(F)cc2)N1C (configuration not stated) | inactive: -4.64% |
| COC(=O)C1(C)COP(=O)(N2CCCC2)OC1 (configuration not stated) | inactive: -1.24% |
| O=C(COc1ccccc1)OC1CN2CCC1CC2 (configuration not stated) | inactive: 6.96% |
| O=C(Nc1ccncc1[N+](=O)[O-])c1ccc([N+](=O)[O-])cc1[N+](=O)[O-] | inactive: 7.92% |
| O=C(O)C(=O)c1ccc(N(CCCl)CCCl)cc1 | inactive: 2.21% |
| CCOC(=O)c1ccc(NC(=O)C(C)(CCl)SC)cc1 (configuration not stated) | inactive: -9.8% |
| O=C(OC1CN2CCC1CC2)c1cccc([N+](=O)[O-])c1 (configuration not stated) | inactive: -14.4% |
| CSc1ccc(Nc2c([N+](=O)[O-])cc([N+](=O)[O-])cc2[N+](=O)[O-])cc1 | inactive: 33.7% |
| CCC(C)N(CC(C)C)C(=S)SC(NC(C)=O)C(Cl)(Cl)Cl (configuration not stated) | inactive: 9.49% |
| O=C(OC1CN2CCC1CC2)C12CC3CC(CC(C3)C1)C2 (configuration not stated) | inactive: 6.97% |
| Cc1cc(=O)[nH]c(N[N+](=O)[O-])n1 | inactive: -2.28% |
| Cc1c2c(nc3ccccc13)SC(C(Cl)Cl)C2 (configuration not stated) | inactive: 11.7% |
| COc1ccc2nc(NP(=O)(c3ccccc3)c3ccccc3)sc2c1 | inactive: -9.07% |
| COc1cc(I)ccc1[As](=O)(O)O | inactive: -20.9% |
| O=P1(N(CCCl)CCCl)OCCCN1CCCl (configuration not stated) | inactive: -2.65% |
| O=P1(N(CCCl)CCCl)Nc2ccccc2N1 | inactive: -8.93% |
| COc1ccc(N/C(=N/P(=O)(N2CCOCC2)N2CCOCC2)N2CCOCC2)cc1 | inactive: -2.1% |
| O=[N+]([O-])c1cc(Oc2ccc([N+](=O)[O-])cc2C(F)(F)F)cc([N+](=O)[O-])c1 | inactive: -0.686% |

| Compound | inhibition (viability loss, TRAIL sensitization) |
| --- | --- |
| C[As](=O)(O)c1cccc(C(=O)O)c1 | inactive: 3.9% |
| O=[As](O)(c1ccc(O)cc1)c1ccccc1O | inactive: -11.3% |
| COc1cc(C(=O)NCC2(N3CCOCC3)CCCCC2)ccc1OCC(C)C | inactive: 7.6% |
| O=[N+]([O-])c1ccc(-c2cc([N+](=O)[O-])c(O)c([N+](=O)[O-])c2)cc1 | inactive: -5.33% |
| Cc1ccc2nc3c(c(C)c2c1)CC(C(Cl)Cl)S3 (configuration not stated) | inactive: -3.96% |
| Cc1ccc(OP(=O)(Nc2ccc([N+](=O)[O-])cn2)Oc2ccc(C)cc2)cc1 | inactive: -4.99% |
| [N-]=[N+]=NC1CCCCC1NC(=O)c1cc([N+](=O)[O-])cc([N+](=O)[O-])c1 (configuration not stated) | inactive: -0.783% |
| CC(C)c1ccc(OP(=O)(Nc2ccccn2)Oc2ccccc2F)cc1 (configuration not stated) | inactive: -4.06% |
| COC(=O)C1(C)COP(=O)(N2CCCCCC2)OC1 (configuration not stated) | inactive: -5.01% |
| ClCCSc1nnc(-c2cccnc2)o1 | inactive: -1.48% |
| O=C(OC1CN2CCC1CC2)c1cccc2[nH]cnc12 (configuration not stated) | inactive: 4.47% |
| CCN(CC)C(=S)SC(NC=O)C(Cl)(Cl)Cl (configuration not stated) | inactive: -13.7% |
| CC(C)NC(=O)NP(=O)(Oc1ccccc1)Oc1ccccc1 | inactive: -3.09% |
| O=[N+]([O-])c1cc([N+](=O)[O-])c(-c2ccn[nH]2)s1 | inactive: 3.75% |
| CS(=O)(=O)c1cc([N+](=O)[O-])c2no[n+]([O-])c2c1 | inactive: 12.5% |
| CCOP1(=S)c2c(C)nn(CCC#N)c2N=C(c2ccccc2F)N1C (configuration not stated) | inactive: -14.9% |
| O=P(Nc1nccs1)(c1ccccc1)c1nc2ccccc2s1 (configuration not stated) | inactive: 12.6% |
| O=P(Nc1nccs1)(Oc1ccccc1)Oc1ccccc1 | inactive: -1.68% |
| O=C(O)COc1ccc([As](=O)(O)O)cc1[N+](=O)[O-] | inactive: -10.9% |
| Nc1ccccc1[As](=O)(O)c1ccccc1 | inactive: 4.16% |
| NC(=O)Nc1ccc([As](=O)(O)O)cc1 | inactive: -0.695% |
